Measured values from patent publication US20220079993A1, “NON-NATURALLY OCCURRING THERMOGENIC ADIPOCYTES, METHODS OF MAKING, AND METHODS OF USE THEREOF” (University of Georgia Research Foundation, Inc., priority 2019, published 2022).

Test system: beige adipocytes
Experiment: High-throughput primary screen, lipolysis assay (glycerol release), 384-well
Assay type: cell-based, human
Experimental: ADSCs were seeded at 5000 cell/cm^2 in 12-well plates, grown for 5 days and then induced to differentiate into GC for 20 days. […] Cells were treated with forskolin (20 μM) for indicated time periods and supernatant samples were collected. Lipolysis assay was performed with free glycerol reagent (Sigma, F6428-40ML), according to manufacturer instructions.
ADSCs were plated in 384-well plates at a density of 5000 cell/cm2 and grown to confluency over ˜4 days. Cells were then differentiated to beige adipocytes using B-8 medium for 21 days. All cell culture and incubations in the 384-well format were done at 37° C. and 5% CO2. […] The use of FDA-approved drugs may allow for re-purposing for therapeutic use.
Lipolysis assays were performed after 24 hours of drug treatment by measuring free glycerol released in the 384-well format, using the procedure described above. Absorbance for each compound was normalized to untreated control samples for each plate and calculated as a percent of the control. Cut-offs for “activating” and “inhibiting” compounds were set at 2-fold. Validation assays were performed for select compounds at a range of concentration doses.

With O=[N+]([O-])c1ccc(-c2nc(-c3ccncc3)c(-c3ccc(F)cc3)[nH]2)cc1 [PD 169316] as the molecule, how does the “% Control (relative levels of glycerol release)” value read?
Its value is 39.64 % control.
